Assay: Metabolic stability in diluted rat serum at 37° C., HPLC
Type: in vitro ADME
Description: Analogs 5055 (SEQ ID NO: 3) or 1205-2 (SEQ ID NO: 50) or unmodified analog Gal(1-16) were incubated in diluted rat serum at 37° C. Remaining amounts of the peptides were determined by HPLC.

Sar-Trp-Thr-Leu-Asn-Ser-Ala-Gly-Tyr-Leu-Leu-Gly-Pro-Lys-Lys-(Lys-palm)-Lys-NH2 [NAX 5055]
metabolic stability versus unmodified Gal(1-16): improve metabolic stability

(Sar)WTLNSAGYLLGPDKDK(Lys-P)DK [NAX 1205-2]
metabolic stability versus unmodified Gal(1-16): improve metabolic stability
